B1: SH2 domain-containing protein 1A (Homo sapiens), O60880-1 (parent)
chain: MDAVAVYHGKISRETGEKLLLATGLDGSYLLRDSESVPGVYCLCVLYHGYIYTYRVSQTETGSWSAETAPGVHKRYFRKIKNLISAFQKPDQGIVIPLQYPVEKKSSARSTQGTTGIREDPDVCLKAP
partner: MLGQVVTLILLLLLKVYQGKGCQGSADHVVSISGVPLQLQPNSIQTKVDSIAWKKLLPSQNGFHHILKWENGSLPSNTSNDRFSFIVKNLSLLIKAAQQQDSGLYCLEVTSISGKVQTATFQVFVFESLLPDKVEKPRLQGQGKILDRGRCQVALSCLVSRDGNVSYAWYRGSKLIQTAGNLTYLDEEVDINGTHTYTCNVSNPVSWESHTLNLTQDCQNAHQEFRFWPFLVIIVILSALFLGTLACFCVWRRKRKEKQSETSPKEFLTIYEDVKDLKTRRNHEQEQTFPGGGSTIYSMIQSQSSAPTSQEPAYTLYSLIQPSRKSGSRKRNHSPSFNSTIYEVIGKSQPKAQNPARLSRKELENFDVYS

Variants of: B1
Conditions: with cd244_human CD244, Q9BZW8

Row | Variant | effect of a mutation on the interaction
1 | G16D | disrupting interaction strength

Reference: IntAct's records for PubMed 15841490
